From the RepoRT retention time repository

Experiment: RP, Waters CORTECS UPLC C18, 100 × 2.1 mm, 1.6 µm, 40 °C, 0.4 mL/min, estimated dead time 0.55 min; A: water + 0.1% formic acid, pH 3; B: acetonitrile + 0.1% formic acid, pH 3; gradient (min/%B) 0/5 1.12/5 6.41/99.5 10.01/99.5
Settings: stereoisomer not certain

CCOP(=S)(OCC)Oc1ncn(-c2ccccc2)n1 [Triazophos]
LC retention time: 5.19 min
